# According to article PMC3745465 (PLoS ONE, 2013):
# Test: in vitro
# Settings: dog, MDCK-MDR1
compound,measurement,value
CC(=O)N1CCN(c2ccc(OCC3COC(Cn4ccnc4)(c4ccc(Cl)cc4Cl)O3)cc2)CC1 (stereo not shown),Papp at 2 h,120 ×10⁻⁶ cm/s
